In ChEMBL document CHEMBL6114984, “Discovery of 2,4-diaminopyrimidine derivatives as potent inhibitors of FAK capable of activating the Hippo pathway for the treatment of esophageal squamous cell carcinoma” (Eur J Med Chem, 2025) one finds inhibition data, which are given here for two molecules.

The chains behind the UniProt entries cited, without tags or fusion partners.
UniProt Q14289, whole entry, looked up: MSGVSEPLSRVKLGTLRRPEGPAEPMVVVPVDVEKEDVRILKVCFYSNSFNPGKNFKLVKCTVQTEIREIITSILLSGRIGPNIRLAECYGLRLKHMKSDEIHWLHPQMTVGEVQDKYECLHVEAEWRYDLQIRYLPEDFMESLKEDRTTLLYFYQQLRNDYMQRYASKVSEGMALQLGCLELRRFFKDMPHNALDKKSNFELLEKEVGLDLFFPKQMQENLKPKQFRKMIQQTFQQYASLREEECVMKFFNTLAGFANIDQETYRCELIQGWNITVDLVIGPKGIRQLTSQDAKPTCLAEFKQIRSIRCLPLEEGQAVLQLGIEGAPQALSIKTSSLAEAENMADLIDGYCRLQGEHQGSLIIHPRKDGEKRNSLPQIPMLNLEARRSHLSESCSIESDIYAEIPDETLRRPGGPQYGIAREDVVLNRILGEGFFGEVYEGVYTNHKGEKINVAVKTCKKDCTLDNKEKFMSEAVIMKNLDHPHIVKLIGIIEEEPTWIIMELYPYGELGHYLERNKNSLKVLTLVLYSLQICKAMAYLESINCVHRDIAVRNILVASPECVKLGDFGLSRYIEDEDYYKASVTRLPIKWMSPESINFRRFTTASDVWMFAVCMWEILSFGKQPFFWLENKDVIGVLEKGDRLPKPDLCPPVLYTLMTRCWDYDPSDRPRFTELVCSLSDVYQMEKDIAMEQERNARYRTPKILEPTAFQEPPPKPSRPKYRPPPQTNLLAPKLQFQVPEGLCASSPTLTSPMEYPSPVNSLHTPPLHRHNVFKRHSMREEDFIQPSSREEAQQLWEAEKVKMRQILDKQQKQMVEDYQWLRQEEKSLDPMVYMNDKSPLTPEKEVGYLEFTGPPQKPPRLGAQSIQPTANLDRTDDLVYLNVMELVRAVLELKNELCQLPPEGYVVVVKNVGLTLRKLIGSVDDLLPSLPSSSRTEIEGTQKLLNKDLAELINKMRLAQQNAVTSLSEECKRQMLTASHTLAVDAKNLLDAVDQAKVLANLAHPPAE
UniProt P49023, whole entry: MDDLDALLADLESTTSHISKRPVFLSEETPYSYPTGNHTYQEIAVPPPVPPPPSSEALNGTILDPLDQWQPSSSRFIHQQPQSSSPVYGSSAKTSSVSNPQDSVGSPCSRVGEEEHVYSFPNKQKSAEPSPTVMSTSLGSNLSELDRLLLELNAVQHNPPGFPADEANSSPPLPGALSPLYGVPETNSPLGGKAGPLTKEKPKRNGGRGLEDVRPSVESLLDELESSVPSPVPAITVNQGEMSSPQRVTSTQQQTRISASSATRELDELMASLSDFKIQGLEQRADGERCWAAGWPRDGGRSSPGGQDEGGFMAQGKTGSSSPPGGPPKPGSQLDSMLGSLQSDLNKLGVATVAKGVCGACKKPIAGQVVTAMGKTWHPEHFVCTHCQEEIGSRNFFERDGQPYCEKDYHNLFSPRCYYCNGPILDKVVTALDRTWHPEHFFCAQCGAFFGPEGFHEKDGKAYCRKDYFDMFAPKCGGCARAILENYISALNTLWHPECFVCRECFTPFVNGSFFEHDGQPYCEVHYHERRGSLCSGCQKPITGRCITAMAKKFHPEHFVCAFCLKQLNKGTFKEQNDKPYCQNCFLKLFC

Experiment [1] deals with KYSE-30. The settings on record: Homo sapiens, dose 400.0 nmol/L, time 48.0 hrs.
In experiment [2] the test system is KYSE-450. The conditions noted are these: Homo sapiens, dose 400.0 nmol/L, time 48.0 hrs.
Experiment [3] relates to KYSE-30. The conditions noted are these: Homo sapiens, dose 400.0 nmol/L, time 48.0 hrs. This is another data set of the same source.
The subject of experiment [4] is KYSE-450. The conditions noted are these: Homo sapiens, dose 400.0 nmol/L, time 48.0 hrs. The source holds these as a separate data set.
For experiment [5], the system named is KYSE-30. The settings on record: Homo sapiens, dose 400.0 nmol/L, time 48.0 hrs. This is another data set of the same source.
Experiment [6] concerns KYSE-450. The conditions noted are these: Homo sapiens, dose 400.0 nmol/L, time 48.0 hrs. This is another data set of the same source.
Experiment [7] addresses Protein-tyrosine kinase 2-beta (Homo sapiens) (UniProt Q14289). The settings on record: KYSE-450, dose 400.0 nmol/L, time 48.0 hrs.
The target is the same in experiment [8]. The conditions noted are these: KYSE-30, dose 400.0 nmol/L, time 48.0 hrs.
Experiment [9] concerns the target Paxillin (Homo sapiens) (UniProt P49023). The settings on record: KYSE-30, dose 400.0 nmol/L, time 48.0 hrs.
The target is the same in experiment [10]. The settings on record: KYSE-450, dose 400.0 nmol/L, time 48.0 hrs.

Active and inactive are the calls of the source. The rule behind the calls is not given here.

On to `CNC(=O)c1ccccc1Nc1nc(Nc2ccc(N3CCOCC3)cc2OC)ncc1Cl`, for which the inhibition entry in the experiment with KYSE-30 [1], in the experiment on KYSE-450 [2], with KYSE-30 [3], with KYSE-450 [4], with KYSE-30 [5] and in the experiment with KYSE-450 [6] was “inactive” in each case.

Consider `CCN1CCN(C(=O)Nc2ccc(Nc3ncc(Cl)c(Nc4ccccc4C(=O)NC)n3)cc2)CC1`, for which the inhibition entry (in [7]; in [8]; at Paxillin (Homo sapiens) [9]; at Paxillin (Homo sapiens) [10]) was “Active” throughout.
